Experimental data: PubChem BioAssay (NCI)
The entries are a selection whose mix differs from that of the whole data set.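 Values shown are percent growth following 48 h exposure of cells in 96-well plates to a single concentration of compound; below 10 was considered active.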 Calls of active or inactive are those of the source.

What was measured:
Assay in all cases: NCI-60 one-dose screen, 48 h (100 = growth as untreated, 0 = no growth, -100 = all killed)
Settings in all cases: 10 µM unless noted
NCI/ADR-RES ovarian = system: NCI/ADR-RES ovarian
T-47D breast = system: T-47D breast
BT-549 breast = system: BT-549 breast
MDA-MB-435 melanoma = system: MDA-MB-435 melanoma
SW-620 colon = system: SW-620 colon
MCF7 breast = system: MCF7 breast
HCT-116 colon = system: HCT-116 colon
HCC-2998 colon = system: HCC-2998 colon
KM12 colon = system: KM12 colon

Structure (SMILES)	growth (NCI/ADR-RES ovarian)	growth (T-47D breast)	growth (BT-549 breast)	growth (MDA-MB-435 melanoma)	growth (SW-620 colon)	growth (MCF7 breast)	growth (HCT-116 colon)	growth (HCC-2998 colon)	growth (KM12 colon)
CCN(CCCl)c1ccc(CCC(=O)O)cc1	inactive: 106%	inactive: 90.6%	inactive: 99.4%	inactive: 109%	inactive: 92.5%	inactive: 93.6%	inactive: 98.1%	inactive: 104%	inactive: 100%
O=C(c1ccc(F)cc1)N(CCCl)CCCl	inactive: 99.6%	inactive: 93.9%	inactive: 105%	inactive: 103%	inactive: 99.3%	inactive: 94.4%	inactive: 105%	inactive: 97.1%	inactive: 106%
COc1cc([N+](=O)[O-])c(Nc2ccc(Cl)cc2[N+](=O)[O-])c([N+](=O)[O-])c1	inactive: 55.9%	inactive: 50.4%	active: 3.56%	inactive: 90%	inactive: 77%	inactive: 45.3%	inactive: 56%	inactive: 75.4%	inactive: 84.8%
O=C(N(CCCl)CCCl)C(Cl)(Cl)Cl	inactive: 107%	inactive: 98.2%	inactive: 105%	inactive: 101%	inactive: 98.6%	inactive: 92.8%	inactive: 100%	inactive: 108%	inactive: 118%
CCOC(=O)NC(C)(CCC(C)(NC(=O)OCC)P(=O)(O)Nc1ncccn1)P(=O)(O)Nc1ncccn1 (stereo not drawn)	inactive: 101% [100 µM]	inactive: 107% [100 µM]	inactive: 117% [100 µM]	inactive: 102% [100 µM]	inactive: 106% [100 µM]	inactive: 90.9% [100 µM]	inactive: 104% [100 µM]		inactive: 102% [100 µM]
O=[N+]([O-])c1cc(Cl)cc([N+](=O)[O-])c1O	inactive: 108%	inactive: 81.5%	inactive: 111%	inactive: 114%	inactive: 95.8%	inactive: 102%	inactive: 98.1%	inactive: 98.7%	inactive: 111%
CCOP(=S)(OCC)OCC	inactive: 106%	inactive: 103%	inactive: 100%	inactive: 106%	inactive: 106%	inactive: 91.5%	inactive: 103%	inactive: 106%	inactive: 101%
C[As](=O)(O)c1cccc(C(=O)O)c1	inactive: 104%	inactive: 97.7%	inactive: 102%	inactive: 107%	inactive: 104%	inactive: 91.7%	inactive: 96.7%	inactive: 98.2%	inactive: 118%
Cc1ccccc1CN(CCCl)Cc1ccccc1C	inactive: 106%	inactive: 79.9%	inactive: 111%	inactive: 111%	inactive: 94.3%	inactive: 96.6%	inactive: 102%	inactive: 96.8%	inactive: 97.7%
CN(C)C(=O)Oc1ccc(/C=N/NC(N)=S)nc1	inactive: 94.1%	inactive: 99.1%	inactive: 95.9%	inactive: 94.7%	inactive: 92.5%	inactive: 85.1%	inactive: 93.5%	inactive: 97.8%	inactive: 91.7%
[N-]=[N+]=NS(=O)(=O)c1ccc([N+](=O)[O-])cc1	inactive: 103%	inactive: 110%	inactive: 104%	inactive: 95.9%	inactive: 101%	inactive: 98.9%	inactive: 102%	inactive: 103%	inactive: 107%
COC(=O)C1(C)COP(=O)(N2CCCCCC2)OC1 (stereo not drawn)	inactive: 99.4%	inactive: 98%	inactive: 107%	inactive: 107%	inactive: 108%	inactive: 103%	inactive: 101%	inactive: 94.8%	inactive: 109%
O=C(Oc1c(Cl)cc(Cl)cc1[N+](=O)[O-])c1cc([N+](=O)[O-])cc([N+](=O)[O-])c1	inactive: 98%	inactive: 101%	inactive: 103%	inactive: 98.3%	inactive: 102%	inactive: 111%	inactive: 108%	inactive: 105%	inactive: 104%
O=C1NC(c2ccccc2)(c2ccccc2)C(=O)N1P(=O)(Oc1ccccc1)Oc1ccccc1	inactive: 102%	inactive: 91.8%	inactive: 101%	inactive: 99.8%	inactive: 103%	inactive: 86.4%	inactive: 104%	inactive: 107%	inactive: 97%
ClCCN1CCn2cnc3ncnc-3c21	inactive: 112%	inactive: 96.1%	inactive: 94.4%	inactive: 105%	inactive: 105%	inactive: 97.6%	inactive: 109%	inactive: 107%	inactive: 102%
O=P1(N(CCCl)CCCl)Nc2ccccc2N1	inactive: 122%	inactive: 109%	inactive: 116%	inactive: 106%	inactive: 117%	inactive: 106%	inactive: 119%	inactive: 111%	inactive: 115%
